Reference: patent US20230365671A1 (ONCOONE RESEARCH AND DEVELOPMENT, published 2023)

Experiments:
[1] = target: T1, Mouse oxMIF (mouse recombinant MIF treated with 0.2% Proclin300, oxMIF surrogate) (mouse, UniProt P34884 2-115, treated with 0.2% Proclin300 (active component 5-chloro-2-methyl-4-isothiazolin-3-one) for 3 h to transform MIF into an oxMIF surrogate); experiment: SPR (Biacore 3000), antibody amine-coupled to CM5 chip, Proclin300-treated MIF 50-150 nM as analyte, 1:1 Langmuir with mass transfer; mean of flow cells 2-4, SD +/-3.01 nM
T1 construct: SPR analyte; also called Proclin300 treated MIF; soluble mouse oxMIF
Description: (§1) The newly designed antibodies C0108 and C0109, as well as the control anti-oxMIF antibody C0008 were immobilized to Biacore CM5 optical sensor chips (GE Healthcare) using standard amine coupling conditions to a density of about 2500, 1500 or 100 RU on Flow cells FC2, FC3 and FC4, respectively. FC1 was used as reference cell and was only reacted with buffers. Mouse or human recombinant MIF were diluted in HBS-EP buffer (GE Healthcare) to concentrations of 50, 75, 100, or 150 nM in the presence of 0.2% Proclin300 (active component 5-chloro-2-methyl-4-isothiazolin-3-one; Sigma) to transform MIF into an oxMIF surrogate (Thiele M et al., 2015) for 3 h at room temperature. […] The kinetics of the concentration series were analyzed by local simultaneous association/dissociation fitting of each binding curve after subtraction of background from the reference cell (FC1) using the iterative Langmuir 1:1 interaction model with mass transfer compensation provided by the BiaEvaluation 4.1 software (GE Healthcare). Data are represented as mean+/−SD (standard deviation) of the calculated KD values of Flow Cells 2-4.
(§2) Results and conclusion: The binding of the newly designed antibodies with enhanced effector functions towards soluble human and mouse oxMIF determined by SPR are shown in Table 8. […]

[2] = target: T1, Mouse oxMIF (mouse recombinant MIF …); experiment: SPR (Biacore 3000), antibody amine-coupled to CM5 chip, Proclin300-treated MIF 50-150 nM as analyte, 1:1 Langmuir with mass transfer; mean of flow cells 2-4, SD +/-2.67 nM
Description: as §1, §2

[3] = target: T1, Mouse oxMIF (mouse recombinant MIF …); experiment: SPR (Biacore 3000), antibody amine-coupled to CM5 chip, Proclin300-treated MIF 50-150 nM as analyte, 1:1 Langmuir with mass transfer; mean of flow cells 2-4, SD +/-0.21 nM
Description: as §1, §2

B1: anti-oxMIF antibody C0008 (control antibody) (antibody, human IgG1, kappa, V domains shown)
VH: EVQLLESGGGLVQPGGSLRLSCAASGFTFSIYSMNWVRQAPGKGLEWVSSIGSSGGTTYYADSVKGRFTISRDNSKNTLYLQMNSLRAEDTAVYYCAGSQWLYGMDVWGQGTTVTVSS
VL: DIQMTQSPSSLSASVGDRVTITCRSSQRIMTYLNWYQQKPGKAPKLLIFVASHSQSGVPSRFRGSGSETDFTLTISGLQPEDSATYYCQQSFWTPLTFGGGTKVEIKR
notes: Human IgG with wt Fc
**Q.** For B1, which Kd [1] is on record?
**A.** 26.9 nM

B2: anti-oxMIF antibody C0108 (antibody, human IgG1, kappa)
heavy: EVQLQESGGGLVQPGGSLRLSCAASGFTFSIYSMNWVRQAPGKGLEWVSSIGSSGGTTYYADSVKGRFTISRDNSKNTLYLQMNSLRAEDTAVYYCAGSQYLYGMDVWGQGTTVTVSSASTKGPSVFPLAPSSKSTSGGTAALGCLVKDYFPEPVTVSWNSGALTSGVHTFPAVLQSSGLYSLSSVVTVPSSSLGTQTYICNVNHKPSNTKVDKKVEPKSCDKTHTCPPCPAPELLGGPDVFLFPPKPKDTLMISRTPEVTCVVVDVSHEDPEVQFNWYVDGVEVHNAKTKPREEQFNSTFRVVSVLTVVHQDWLNGKEYKCKVSNKALPAPEEKTISKTKGQPREPQVYTLPPSREEMTKNQVSLTCLVKGFYPSDIAVEWESNGQPENNYKTTPPMLDSDGSFFLYSKLTVDKSRWQQGNVFSCSVMHEALHNHYTQKSLSLSPG
light: DIQMTQSPSSLSASVGDRVTITCRSSQRIMTYLNWYQQKPGKAPKLLIYVGSHSQSGVPSRFRGSGSETDFTLTISGLQPEDSATYYCQQSFFTPLTFGGGTKVEIKRTVAAPSVFIFPPSDEQLKSGTASVVCLLNNFYPREAKVQWKVDNALQSGNSQESVTEQDSKDSTYSLSSTLTLSKADYEKHKVYACEVTHQGLSSPVTKSFNRGEC
notes: ADCC/ADCP enhancing mutations in the Fc portion
**Q.** B2 was tested. Which Kd [2] did it give?
**A.** 31.6 nM

B3: anti-oxMIF antibody C0109 (antibody, human IgG1, kappa)
heavy: EVQLQESGGGLVQPGGSLRLSCAASGFTFSIYSMNWVRQAPGKGLEWVSSIGSSGGTTYYADSVKGRFTISRDNSKNTLYLQMNSLRAEDTAVYYCAGSQYLYGMDVWGQGTTVTVSSASTKGPSVFPLAPSSKSTSGGTAALGCLVKDYFPEPVTVSWNSGALTSGVHTFPAVLQSSGLYSLSSVVTVPSSSLGTQTYICNVNHKPSNTKVDKKVEPKSCDKTHTCPPCPAPELLGGPDVFLFPPKPKDTLMISRTPEVTCVVVDVSHEDPEVQFNWYVDGVEVHNAKTKPREEQFNSTFRVVSVLTVVHQDWLNGKEYKCKVSNKALPAPEEKTISKTKGQPREPQVYTLPPSREEMTKNQVSLTCLVKGFYPSDIAVEWESNGQPENNYKTTPPMLDSDGSFFLYSKLTVDKSRWQQGNVFSCSVMHEALHNHYTQKSLSLSPG
light: DIQMTQSPSSLSASVGDRVTITCRSSQRILTYLNWYQQKPGKAPKLLIYVGSHSQSGVPSRFRGSGSETDFTLTISGLQSEDSATYYCQQSFFTPLTFGGGTKVEIKRTVAAPSVFIFPPSDEQLKSGTASVVCLLNNFYPREAKVQWKVDNALQSGNSQESVTEQDSKDSTYSLSSTLTLSKADYEKHKVYACEVTHQGLSSPVTKSFNRGEC
notes: as for B2
**Q.** With B3 as the binder, how does the Kd [3] read?
**A.** 28.6 nM
